The record followed here is article PMC3401096 (Molecular Biosystems, 2009).

Substrate in this series: O=C([O-])CCC(=O)C(=O)[O-].[Na+].[Na+]
The series can be described thus: purified protein, by the assay type. The note with it: other: substrate of JMJD2E, 50 mM HEPES pH 7.5, 0.01% Tween-20, 37.0 °C.

B1: JMJD2E (Homo sapiens) (protein)
chain: MKSVHSSPQNTSHTIMTFYPTMEEFADFNTYVAYMESQGAHQAGLAKVIPPKEWKARQMYDDIEDILIATPLQQVTSGQGGVFTQYHKKKKAMRVGQYRRLANSKKYQTPPHQNFADLEQRYWKSHPGNPPIYGADISGSLFEESTKQWNLGHLGTILDLLEQECGVVIEGVNTPYLYFGMWKTTFAWHTEDMDLYSINYLHFGEPKTWYVVPPEHGQHLERLARELFPDISRGCEAFLRHKVALISPTVLKENGIPFNCMTQEAGEFMVTFPYGYHAGFNHGFNCAEAINFATPRWIDYGKMASQCSCGESTVTFSMDPFVRIVQPESYELWKHRQ
The Km is the substrate concentration at which the rate is half of its maximum. As usually defined, the kcat is the number of substrate molecules converted per active site and unit of time at saturation. Turning to B1, the Km is 14.0 ± 1.8 µM and the catalytic constant (kcat) was 0.174 ± 0.006 s⁻¹.
